Entries after “also recorded” stand apart in the source; their conditions may differ.
How the values were obtained:
Huh7 cells = experiment: MTT cell growth assay; details: KAAD-cyclopamine 2.5 μM
HepG2 = experiment: MTT cell growth assay; details: KAAD-cyclopamine 2.5 μM

KAAD-cyclopamine
cell growth (MTT assay) (Huh7 cells): inhibited; also recorded: inhibition | cell growth (MTT assay) (HepG2): not affected and not
